The values below come from US10934303B2, “Aryl ethene derivative and pharmaceutical composition containing same as active ingredient” (priority 2016, dated 2021).

Amino acid sequences for entries named in this document (tags omitted). A change or cut given only in a name is not applied to a line headed by its entry.
UniProt O95718: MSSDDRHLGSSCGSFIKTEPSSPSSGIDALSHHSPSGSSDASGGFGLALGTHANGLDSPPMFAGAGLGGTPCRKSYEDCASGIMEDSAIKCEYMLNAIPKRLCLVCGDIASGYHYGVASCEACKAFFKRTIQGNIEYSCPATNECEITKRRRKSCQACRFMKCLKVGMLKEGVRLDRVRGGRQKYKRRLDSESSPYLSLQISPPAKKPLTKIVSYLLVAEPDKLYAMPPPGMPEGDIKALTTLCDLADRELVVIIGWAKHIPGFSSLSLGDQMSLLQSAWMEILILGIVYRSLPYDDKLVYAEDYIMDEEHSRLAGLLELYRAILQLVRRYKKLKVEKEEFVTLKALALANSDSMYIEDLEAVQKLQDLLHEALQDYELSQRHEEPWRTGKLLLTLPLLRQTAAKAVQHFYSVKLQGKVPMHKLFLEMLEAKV
UniProt P03372, whole entry, looked up: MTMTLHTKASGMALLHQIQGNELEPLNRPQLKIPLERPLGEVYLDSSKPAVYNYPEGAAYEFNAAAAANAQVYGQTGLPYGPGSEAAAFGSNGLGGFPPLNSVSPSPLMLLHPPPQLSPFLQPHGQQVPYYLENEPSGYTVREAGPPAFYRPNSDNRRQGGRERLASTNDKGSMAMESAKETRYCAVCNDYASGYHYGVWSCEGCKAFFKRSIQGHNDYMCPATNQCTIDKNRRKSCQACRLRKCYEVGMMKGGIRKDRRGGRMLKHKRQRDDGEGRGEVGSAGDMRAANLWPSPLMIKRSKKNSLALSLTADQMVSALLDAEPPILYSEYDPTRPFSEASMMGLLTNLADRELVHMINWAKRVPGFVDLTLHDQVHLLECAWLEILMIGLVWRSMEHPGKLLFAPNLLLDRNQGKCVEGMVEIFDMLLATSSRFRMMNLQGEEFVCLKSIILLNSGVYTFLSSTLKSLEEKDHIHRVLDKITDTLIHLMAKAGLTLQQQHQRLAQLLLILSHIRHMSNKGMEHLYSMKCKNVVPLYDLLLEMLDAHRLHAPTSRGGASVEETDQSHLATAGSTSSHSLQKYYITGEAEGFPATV

The structures appear in SMILES notation. pIC50: −log10 of the molar value. Bounds are passed on as bounds.

One assay has as its target ERRβ (Homo sapiens, UniProt O95718). To be noted: TR-FRET, PGC1a coactivator; read-out: Binding Assay, IC50 ERRβ. (In TR-FRET formats the signal depends on donor and acceptor labels being close together.)
The target in assay [1] is GST-bound ER alpha ligand-binding domain (LBD) (Homo sapiens (Human), UniProt P03372). Briefly: biochemical.

As a reminder, the pIC50 is the negative decadic logarithm of the IC50, by convention in mol/L. Regarding `CN(C)CCOc1ccc(/C(=C(/CCCO)c2ccccc2)c2ccc(O)cc2)cc1` [GSK5182, (Z)-4-(1-(4-(2-(dimethylamino)ethoxy)phenyl)-5-hydroxy-2-phenylpent-1-en-1-yl)phenol, reference compound], the pIC50 at ERRβ was under 5.00.
For the compound `CC(C)N1CCN(c2ccc(/C(=C(/CCCO)c3ccccc3)c3ccc(NS(C)(=O)=O)cc3)cc2)CC1` [Compound 27a, (E)-N-(4-(5-hydroxy-1-(4-(4-isopropylpiperazin-1-yl)phenyl)-2-phenylpent-1-en-1-yl)phenyl)methanesulfonamide], the pIC50 was 7.15 on ERRβ and 6.38 in assay [1].
